Experimental data as given in patent US10213433B2 (AbbVie Inc., priority 2010, dated 2019).

Sequences of proteins named here, by UniProt entry; tags and fusion partners are left off.
UniProt P10415, whole entry: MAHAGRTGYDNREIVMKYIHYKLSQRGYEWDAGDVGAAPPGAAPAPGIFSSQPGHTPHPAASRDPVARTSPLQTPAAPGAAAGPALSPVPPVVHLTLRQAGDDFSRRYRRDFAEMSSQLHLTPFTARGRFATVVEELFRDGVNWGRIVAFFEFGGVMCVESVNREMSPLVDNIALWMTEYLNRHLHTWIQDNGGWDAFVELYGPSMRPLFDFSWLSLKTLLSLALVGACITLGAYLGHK

Biological target: Bcl-2 protein (Homo sapiens (Human), UniProt P10415)
Test: Bcl-2 binding TR-FRET (Time-Resolved Fluorescence-Resonance-Energy-Transfer) assay
Details: inhibition constant for binding to Bcl-2 protein
Text: The smaller the Ki value, the greater is the binding affinity.

Structure (SMILES) | Ki [nM]
CC1(C)CCC(CN2CCN(c3ccc(C(=O)NS(=O)(=O)c4ccc(N[C@@H]5CCN(C6COC6)C5)c([N+](=O)[O-])c4)c(Oc4cnc5[nH]ccc5c4)c3)CC2)=C(c2ccc(Cl)cc2)C1 [Compound 224, 4-(4-{[2-(4-chlorophenyl)-4,4-dimethylcyclohex-1-en-1-yl]methyl}piperazin-1-yl)-N-[(3-nitro-4-{[(3R)-1-(oxetan-3-yl)pyrrolidin-3-yl]amino}phenyl)sulfonyl]-2-(1H-pyrrolo[2,3-b]pyridin-5-yloxy)benzamide] | < 0.01
CC1(C)CCC(CN2CCN(c3ccc(C(=O)NS(=O)(=O)c4cnc(OC[C@H]5C[C@H]6C[C@@H]5C[C@@]6(C)O)c(Cl)c4)c(Oc4cnc5[nH]ccc5c4)c3)CC2)=C(c2ccc(Cl)cc2)C1 [Compound 343, N-[(5-chloro-6-{[(1R,2S,4R,5R)-5-hydroxy-5-methylbicyclo[2.2.1]hept-2-yl]methoxy}pyridin-3-yl)sulfonyl]-4-(4-{[2-(4-chlorophenyl)-4,4-dimethylcyclohex-1-en-1-yl]methyl}piperazin-1-yl)-2-(1H-pyrrolo[2,3-b]pyridin-5-yloxy)benzamide] | < 0.01
